In PubChem BioAssay AID488841 (Sanford-Burnham Center for Chemical Genomics, 2010):
This is a selection; strong and weak results do not stand in their true shares. Active and inactive are the calls of the source.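 How the source made its calls: active means mean inhibition above 50% across duplicate retests at 10 µM; inactive means the rest.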

test: yeast NALP1 reporter signal suppression – S. cerevisiae, luminescence, single concentration, NALP1 inhibitor project, confirmation (AID 488841);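 further: plate controls were DMSO in galactose medium for no effect and cells in plain SD medium for full effect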; settings: S. cerevisiae NALP1/ASC/Caspase-1 reporter, beta-gal luminescence; at 10 µM; active compounds read high

Q: Which inhibition does the source give for `CCN1CCC(Nc2cccc(F)c2)CC1` here?
A: inactive: 24.1%
